Our source for the tumor growth values is paper PMC8749467, “A new ALK inhibitor overcomes resistance to first‐ and second‐generation inhibitors in NSCLC” (EMBO Molecular Medicine, 2021).

For this test, the system named is H3122 xenograft tumors. Conditions: 50 mg/kg once daily, 11 days.

In the case of `C[C@@H](Oc1cc(-c2cnn(C3CCNCC3)c2)cnc1N)c1c(Cl)ccc(F)c1Cl` [Crizotinib, crizotinib], the tumor growth result is listed as “tumor growth inhibition”.
